Measured values as given in US12433911B2, “Preparation and storage of liposomal RNA formulations suitable for therapy” (BIONTECH SE, priority 2019, dated 2025).

Key:
[1] = Buffer, pH, NaCl and sucrose stability studies at +25° C. and −15° C. (PCS, pH, capillary electrophoresis)
Experimental: RNA lipoplexes are incubated under accelerated conditions (25° C.) in the presence of an exemplarily cryoprotectant. RNA integrity was analyzed by capillary electrophoresis over 60 days. Additionally, RNA lipoplexes are incubated under at the anticipated storage conditions (−15° C.) in the presence of an exemplarily cryoprotectant for up to two years. RNA integrity was analyzed by capillary electrophoresis.
The respective RNA lipoplexes were investigated under accelerated conditions (25° C.) and in the frozen state (−15° C.).
RNA lipoplexes were formed with liposomes containing 2 mM of acetic acid. The respective RNA lipoplexes were investigated under accelerated conditions (25° C.) and in the frozen state (−15° C.).
Method: All RNA lipoplexes were automatically prepared in a single batch and the different concentrations of HEPES were adjusted by the addition of a cryoprotectant solution containing different amounts of HEPES. Particle sizes and polydispersity of RNA lipolexes were analyzed by photon correlation spectroscopy (PCS) measurements. Additionally, the RNA integrity was analyzed by capillary electrophoresis and the pH was measured.
In the following study, the concentration of HEPES which is required for stabilization of the pH of the RNA lipoplexes was investigated. […]

[2] = RNA integrity of RNA lipoplexes under stress conditions (40° C.), capillary electrophoresis; details: 21 days, absence of cryoprotectant, by buffering system

stability of the RNA in RNA lipoplexes ([1]; Example 2.1, accelerated conditions (25°)): lower stability
preservation of the particle size and the polydispersity ([1]; Example 2.1, frozen state (−15° C.)): equally suited
stabilization of the RNA (RNA integrity) [2]: comparable results
Substance: acetic acid/sodium acetate
